{
  "sequences": {"note": "Amino acid sequences for entries named in this document (tags omitted). A change or cut given only in a name is not applied to a line headed by its entry.", "UniProt Q9UQB9": "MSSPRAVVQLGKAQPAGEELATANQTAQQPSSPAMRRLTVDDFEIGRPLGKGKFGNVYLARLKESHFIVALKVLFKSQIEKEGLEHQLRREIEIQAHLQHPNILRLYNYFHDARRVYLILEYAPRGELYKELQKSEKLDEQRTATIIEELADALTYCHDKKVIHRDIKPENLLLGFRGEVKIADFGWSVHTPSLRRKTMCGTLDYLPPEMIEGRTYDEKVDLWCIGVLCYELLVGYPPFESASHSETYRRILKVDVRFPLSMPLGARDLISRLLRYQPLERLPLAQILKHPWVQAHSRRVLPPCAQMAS", "UniProt Q9UQM7, whole entry, looked up": "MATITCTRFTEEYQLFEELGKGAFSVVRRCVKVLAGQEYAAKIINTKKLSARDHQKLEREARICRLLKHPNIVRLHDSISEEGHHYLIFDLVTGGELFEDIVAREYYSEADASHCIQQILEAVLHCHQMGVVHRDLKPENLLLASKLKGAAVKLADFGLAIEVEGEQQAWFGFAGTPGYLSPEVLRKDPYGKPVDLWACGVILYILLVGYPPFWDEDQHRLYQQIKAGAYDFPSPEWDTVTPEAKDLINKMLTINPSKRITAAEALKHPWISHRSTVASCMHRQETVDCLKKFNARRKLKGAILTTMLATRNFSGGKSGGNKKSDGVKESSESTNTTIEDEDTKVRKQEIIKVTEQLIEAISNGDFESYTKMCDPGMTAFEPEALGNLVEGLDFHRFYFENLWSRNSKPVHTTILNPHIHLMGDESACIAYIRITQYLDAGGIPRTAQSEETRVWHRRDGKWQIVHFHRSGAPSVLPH", "UniProt Q16832": "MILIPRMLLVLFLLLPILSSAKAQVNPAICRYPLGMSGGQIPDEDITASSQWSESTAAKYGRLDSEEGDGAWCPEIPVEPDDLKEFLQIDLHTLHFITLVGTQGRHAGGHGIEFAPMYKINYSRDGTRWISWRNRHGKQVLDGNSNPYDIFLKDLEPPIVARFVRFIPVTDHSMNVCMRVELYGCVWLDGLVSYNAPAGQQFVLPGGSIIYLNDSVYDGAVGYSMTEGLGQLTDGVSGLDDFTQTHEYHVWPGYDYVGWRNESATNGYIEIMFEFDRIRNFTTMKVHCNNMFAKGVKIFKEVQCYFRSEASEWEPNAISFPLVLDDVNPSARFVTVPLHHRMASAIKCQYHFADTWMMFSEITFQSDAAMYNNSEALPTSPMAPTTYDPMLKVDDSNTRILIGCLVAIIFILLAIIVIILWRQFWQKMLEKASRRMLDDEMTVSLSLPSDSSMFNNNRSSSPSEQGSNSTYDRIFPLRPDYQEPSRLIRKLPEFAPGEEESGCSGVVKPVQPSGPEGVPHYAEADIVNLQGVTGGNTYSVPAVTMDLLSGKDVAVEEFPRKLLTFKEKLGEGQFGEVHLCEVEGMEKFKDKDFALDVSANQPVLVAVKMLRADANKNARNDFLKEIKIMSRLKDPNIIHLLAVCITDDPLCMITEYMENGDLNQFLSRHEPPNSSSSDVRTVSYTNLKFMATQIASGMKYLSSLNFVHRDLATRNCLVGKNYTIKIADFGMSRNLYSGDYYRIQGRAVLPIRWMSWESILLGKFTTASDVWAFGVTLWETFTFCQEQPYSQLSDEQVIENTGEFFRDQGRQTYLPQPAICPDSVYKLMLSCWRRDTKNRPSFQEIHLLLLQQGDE", "UniProt Q99558": "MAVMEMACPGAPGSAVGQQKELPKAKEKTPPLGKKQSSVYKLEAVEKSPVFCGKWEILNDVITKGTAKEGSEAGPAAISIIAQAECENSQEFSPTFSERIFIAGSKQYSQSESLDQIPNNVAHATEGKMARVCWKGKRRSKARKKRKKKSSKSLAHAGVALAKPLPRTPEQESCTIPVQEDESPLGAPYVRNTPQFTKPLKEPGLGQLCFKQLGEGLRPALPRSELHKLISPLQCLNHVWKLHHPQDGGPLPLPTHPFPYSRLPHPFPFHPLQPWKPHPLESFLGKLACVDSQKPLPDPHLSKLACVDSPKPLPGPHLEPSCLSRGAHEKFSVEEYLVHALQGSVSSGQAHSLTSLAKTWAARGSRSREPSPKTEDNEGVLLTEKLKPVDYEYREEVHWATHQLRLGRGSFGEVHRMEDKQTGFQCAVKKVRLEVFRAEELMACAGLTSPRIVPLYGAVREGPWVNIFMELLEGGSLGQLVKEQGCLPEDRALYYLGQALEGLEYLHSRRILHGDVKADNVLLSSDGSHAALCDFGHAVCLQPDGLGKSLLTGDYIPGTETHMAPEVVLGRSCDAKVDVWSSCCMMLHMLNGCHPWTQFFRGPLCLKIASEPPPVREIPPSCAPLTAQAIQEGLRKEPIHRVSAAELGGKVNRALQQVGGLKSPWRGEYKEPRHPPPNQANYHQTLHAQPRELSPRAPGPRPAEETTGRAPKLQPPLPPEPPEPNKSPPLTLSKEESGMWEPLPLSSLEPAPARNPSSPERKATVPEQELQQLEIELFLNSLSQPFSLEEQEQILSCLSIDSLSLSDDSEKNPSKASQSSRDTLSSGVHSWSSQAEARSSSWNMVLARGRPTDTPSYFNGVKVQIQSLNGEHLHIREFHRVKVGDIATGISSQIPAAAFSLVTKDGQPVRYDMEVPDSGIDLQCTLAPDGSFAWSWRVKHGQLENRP", "UniProt P53779": "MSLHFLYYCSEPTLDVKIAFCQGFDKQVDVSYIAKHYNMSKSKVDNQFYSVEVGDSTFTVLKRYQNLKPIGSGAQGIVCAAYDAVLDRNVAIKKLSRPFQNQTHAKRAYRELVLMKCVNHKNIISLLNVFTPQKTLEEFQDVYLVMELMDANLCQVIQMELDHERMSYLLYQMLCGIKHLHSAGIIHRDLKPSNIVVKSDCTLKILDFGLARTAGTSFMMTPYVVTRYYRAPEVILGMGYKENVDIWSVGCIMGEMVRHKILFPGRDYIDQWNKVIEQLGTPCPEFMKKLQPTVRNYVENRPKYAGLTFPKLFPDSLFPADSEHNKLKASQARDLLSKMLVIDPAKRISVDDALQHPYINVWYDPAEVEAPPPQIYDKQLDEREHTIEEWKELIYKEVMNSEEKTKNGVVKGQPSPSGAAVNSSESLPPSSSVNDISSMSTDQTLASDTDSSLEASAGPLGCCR", "UniProt Q96L34": "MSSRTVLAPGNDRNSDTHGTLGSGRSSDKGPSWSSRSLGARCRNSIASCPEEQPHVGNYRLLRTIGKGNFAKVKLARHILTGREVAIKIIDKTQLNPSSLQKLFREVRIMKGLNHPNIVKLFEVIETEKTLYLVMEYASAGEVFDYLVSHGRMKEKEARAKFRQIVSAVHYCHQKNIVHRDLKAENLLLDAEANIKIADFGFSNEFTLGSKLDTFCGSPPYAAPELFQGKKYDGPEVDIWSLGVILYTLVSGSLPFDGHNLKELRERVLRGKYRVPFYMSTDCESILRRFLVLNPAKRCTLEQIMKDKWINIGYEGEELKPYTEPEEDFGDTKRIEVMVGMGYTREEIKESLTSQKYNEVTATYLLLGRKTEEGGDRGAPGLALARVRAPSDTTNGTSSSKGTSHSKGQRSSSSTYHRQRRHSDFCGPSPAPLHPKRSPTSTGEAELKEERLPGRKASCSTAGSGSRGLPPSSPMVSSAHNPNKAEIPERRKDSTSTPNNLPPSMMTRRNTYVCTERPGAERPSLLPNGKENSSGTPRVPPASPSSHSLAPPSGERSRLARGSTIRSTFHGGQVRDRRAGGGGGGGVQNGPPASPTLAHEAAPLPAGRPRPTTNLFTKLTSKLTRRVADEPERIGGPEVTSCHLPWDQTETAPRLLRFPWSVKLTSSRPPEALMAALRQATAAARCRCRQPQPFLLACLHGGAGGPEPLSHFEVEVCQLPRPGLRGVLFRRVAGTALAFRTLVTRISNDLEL", "UniProt P42679": "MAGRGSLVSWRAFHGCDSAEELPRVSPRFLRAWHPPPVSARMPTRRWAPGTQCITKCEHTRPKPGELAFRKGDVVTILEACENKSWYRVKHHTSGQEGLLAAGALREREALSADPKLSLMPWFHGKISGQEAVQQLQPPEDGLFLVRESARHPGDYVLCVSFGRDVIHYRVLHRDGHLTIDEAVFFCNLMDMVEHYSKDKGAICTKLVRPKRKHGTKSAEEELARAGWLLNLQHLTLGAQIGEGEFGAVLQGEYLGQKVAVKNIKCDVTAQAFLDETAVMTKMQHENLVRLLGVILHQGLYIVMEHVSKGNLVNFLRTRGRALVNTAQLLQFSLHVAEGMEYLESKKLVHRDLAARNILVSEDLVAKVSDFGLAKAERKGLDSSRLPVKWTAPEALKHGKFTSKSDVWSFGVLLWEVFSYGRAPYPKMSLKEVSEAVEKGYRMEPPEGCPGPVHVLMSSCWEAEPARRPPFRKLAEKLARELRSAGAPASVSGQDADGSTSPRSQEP", "UniProt Q9HC98": "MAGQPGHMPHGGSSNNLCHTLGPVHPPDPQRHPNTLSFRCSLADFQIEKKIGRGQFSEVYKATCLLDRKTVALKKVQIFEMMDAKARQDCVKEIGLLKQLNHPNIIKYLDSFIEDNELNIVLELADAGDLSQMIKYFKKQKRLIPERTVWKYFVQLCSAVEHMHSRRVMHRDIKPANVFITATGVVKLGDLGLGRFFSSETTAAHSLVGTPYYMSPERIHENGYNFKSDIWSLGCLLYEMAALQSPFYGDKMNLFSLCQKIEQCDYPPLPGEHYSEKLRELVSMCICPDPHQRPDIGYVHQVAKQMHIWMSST", "UniProt O75582, whole entry, looked up": "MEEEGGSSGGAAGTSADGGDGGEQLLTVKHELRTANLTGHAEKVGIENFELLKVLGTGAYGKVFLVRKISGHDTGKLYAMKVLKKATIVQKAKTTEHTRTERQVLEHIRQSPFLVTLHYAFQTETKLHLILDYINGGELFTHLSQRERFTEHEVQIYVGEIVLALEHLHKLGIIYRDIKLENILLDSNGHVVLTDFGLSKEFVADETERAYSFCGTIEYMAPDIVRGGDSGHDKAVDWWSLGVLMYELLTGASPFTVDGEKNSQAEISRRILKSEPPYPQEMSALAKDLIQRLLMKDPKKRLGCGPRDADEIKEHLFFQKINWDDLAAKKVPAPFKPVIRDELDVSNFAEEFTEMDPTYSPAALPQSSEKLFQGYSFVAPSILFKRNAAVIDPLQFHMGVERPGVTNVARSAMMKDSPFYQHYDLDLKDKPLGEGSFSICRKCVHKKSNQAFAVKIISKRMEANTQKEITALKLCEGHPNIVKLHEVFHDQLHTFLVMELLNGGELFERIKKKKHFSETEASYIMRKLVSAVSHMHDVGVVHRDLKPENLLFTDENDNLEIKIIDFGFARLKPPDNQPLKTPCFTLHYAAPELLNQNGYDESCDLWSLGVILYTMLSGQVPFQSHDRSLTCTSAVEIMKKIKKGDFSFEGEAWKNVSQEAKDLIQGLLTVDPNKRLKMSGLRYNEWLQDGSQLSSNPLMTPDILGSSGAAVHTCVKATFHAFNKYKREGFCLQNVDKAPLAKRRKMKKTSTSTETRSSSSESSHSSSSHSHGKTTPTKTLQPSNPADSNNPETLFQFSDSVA", "UniProt Q02763": "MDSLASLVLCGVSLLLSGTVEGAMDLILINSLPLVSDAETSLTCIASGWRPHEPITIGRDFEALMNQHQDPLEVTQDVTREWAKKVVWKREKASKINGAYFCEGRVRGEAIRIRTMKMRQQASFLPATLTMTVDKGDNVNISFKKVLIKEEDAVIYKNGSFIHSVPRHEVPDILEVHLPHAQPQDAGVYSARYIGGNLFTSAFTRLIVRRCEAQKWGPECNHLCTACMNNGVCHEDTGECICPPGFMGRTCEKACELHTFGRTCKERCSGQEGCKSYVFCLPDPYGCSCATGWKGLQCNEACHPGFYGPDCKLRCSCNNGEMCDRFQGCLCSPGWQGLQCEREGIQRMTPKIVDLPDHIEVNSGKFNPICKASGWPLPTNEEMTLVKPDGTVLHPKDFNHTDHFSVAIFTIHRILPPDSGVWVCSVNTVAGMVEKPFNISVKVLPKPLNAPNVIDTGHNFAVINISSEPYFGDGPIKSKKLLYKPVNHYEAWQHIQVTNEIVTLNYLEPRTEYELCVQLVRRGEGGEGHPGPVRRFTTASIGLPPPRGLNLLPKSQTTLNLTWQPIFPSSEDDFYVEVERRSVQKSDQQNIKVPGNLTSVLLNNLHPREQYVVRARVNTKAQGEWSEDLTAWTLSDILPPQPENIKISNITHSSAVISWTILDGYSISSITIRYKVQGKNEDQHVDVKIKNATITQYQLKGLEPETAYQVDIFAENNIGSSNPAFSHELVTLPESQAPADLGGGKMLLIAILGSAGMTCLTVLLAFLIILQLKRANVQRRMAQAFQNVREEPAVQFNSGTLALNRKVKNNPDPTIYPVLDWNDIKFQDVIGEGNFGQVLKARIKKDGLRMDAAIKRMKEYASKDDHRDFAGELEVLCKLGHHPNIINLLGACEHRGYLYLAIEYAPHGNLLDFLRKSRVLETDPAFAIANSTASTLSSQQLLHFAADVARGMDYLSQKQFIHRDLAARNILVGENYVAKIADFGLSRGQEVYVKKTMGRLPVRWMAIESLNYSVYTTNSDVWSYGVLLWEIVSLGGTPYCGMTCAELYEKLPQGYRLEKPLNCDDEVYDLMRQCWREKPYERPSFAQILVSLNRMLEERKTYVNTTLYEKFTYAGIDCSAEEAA"},
  "source": "the kinase profiling compilation of Christmann-Franck et al. (2016)",
  "test_in_all_cases": "radiometric filter-binding kinase assay, Kinase HotSpot",
  "conditions_in_all_cases": "compound 0.5 µM; ATP 10 µM",
  "key": {"ACVR1B (human)": {"molecular_target": "ACVR1B (human) (UniProt P36896)"}, "AKT2 (human)": {"molecular_target": "AKT2 (human) (UniProt P31751)"}, "AURKC (human)": {"molecular_target": "AURKC (human) (UniProt Q9UQB9)"}, "CAMK2A (human)": {"molecular_target": "CAMK2A (human) (UniProt Q9UQM7)"}, "CDC42BPB (human)": {"molecular_target": "CDC42BPB (human) (UniProt Q9Y5S2)"}, "CHEK2 (human)": {"molecular_target": "CHEK2 (human) (UniProt O96017)"}, "CSNK2A1 (human)": {"molecular_target": "CSNK2A1 (human) (UniProt P68400)"}, "DDR2 (human)": {"molecular_target": "DDR2 (human) (UniProt Q16832)"}, "EPHA1 (human)": {"molecular_target": "EPHA1 (human) (UniProt P21709)"}, "GRK5 (human)": {"molecular_target": "GRK5 (human) (UniProt P34947)"}, "HIPK1 (human)": {"molecular_target": "HIPK1 (human) (UniProt Q86Z02)"}, "HIPK3 (human)": {"molecular_target": "HIPK3 (human) (UniProt Q9H422)"}, "JAK2 JH1 JH2 (human)": {"molecular_target": "JAK2 JH1 JH2 (human) (UniProt O60674)"}, "JAK3 JH1 JH2 (human)": {"molecular_target": "JAK3 JH1 JH2 (human) (UniProt P52333)"}, "MAP2K1 (human)": {"molecular_target": "MAP2K1 (human) (UniProt Q02750)"}, "MAP2K2 (human)": {"molecular_target": "MAP2K2 (human) (UniProt P36507)"}, "MAP3K11 (human)": {"molecular_target": "MAP3K11 (human) (UniProt Q16584)"}, "MAP3K14 (human)": {"molecular_target": "MAP3K14 (human) (UniProt Q99558)"}, "MAPK10 (human)": {"molecular_target": "MAPK10 (human) (UniProt P53779)"}, "MAPK8 (human)": {"molecular_target": "MAPK8 (human) (UniProt P45983)"}, "MARK4 (human)": {"molecular_target": "MARK4 (human) (UniProt Q96L34)"}, "MATK (human)": {"molecular_target": "MATK (human) (UniProt P42679)"}, "MST1R (human)": {"molecular_target": "MST1R (human) (UniProt Q04912)"}, "MYLK2 (human)": {"molecular_target": "MYLK2 (human) (UniProt Q9H1R3)"}, "NEK6 (human)": {"molecular_target": "NEK6 (human) (UniProt Q9HC98)"}, "NTRK1 (human)": {"molecular_target": "NTRK1 (human) (UniProt P04629)"}, "OXSR1 (human)": {"molecular_target": "OXSR1 (human) (UniProt O95747)"}, "PAK4 (human)": {"molecular_target": "PAK4 (human) (UniProt O96013)"}, "PHKG1 (human)": {"molecular_target": "PHKG1 (human) (UniProt Q16816)"}, "PRKCA (human)": {"molecular_target": "PRKCA (human) (UniProt P17252)"}, "PRKCD (human)": {"molecular_target": "PRKCD (human) (UniProt Q05655)"}, "PRKCI (human)": {"molecular_target": "PRKCI (human) (UniProt P41743)"}, "RPS6KA5 KD2 (human)": {"molecular_target": "RPS6KA5 KD2 (human) (UniProt O75582)"}, "SRC (human)": {"molecular_target": "SRC (human) (UniProt P12931)"}, "SRPK2 (human)": {"molecular_target": "SRPK2 (human) (UniProt P78362)"}, "STK11 (human)": {"molecular_target": "STK11 (human) (UniProt Q15831)"}, "STK39 (human)": {"molecular_target": "STK39 (human) (UniProt Q9UEW8)"}, "TEK (human)": {"molecular_target": "TEK (human) (UniProt Q02763)"}, "TSSK2 (human)": {"molecular_target": "TSSK2 (human) (UniProt Q96PF2)"}, "TXK (human)": {"molecular_target": "TXK (human) (UniProt P42681)"}, "VRK1 (human)": {"molecular_target": "VRK1 (human) (UniProt Q99986)"}, "ZAP70 (human)": {"molecular_target": "ZAP70 (human) (UniProt P43403)"}},
  "data": [
    {"smiles": "CO[C@H]1[C@@H](OC)C[C@H](C)[C@@H](OC)C2=CC(=O)C=C(NC(=O)/C(C)=C\\C=C/[C@H](OC)[C@@H](OC(N)=O)/C(C)=C\\[C@@H]1C)C2=O", "values": [
      {"measurement": "residual activity", "setting": "ACVR1B (human)", "result": 99.5, "unit": "%"},
      {"measurement": "residual activity", "setting": "AKT2 (human)", "result": 94.4, "unit": "%"},
      {"measurement": "residual activity", "setting": "AURKC (human)", "result": 99.5, "unit": "%"},
      {"measurement": "residual activity", "setting": "CAMK2A (human)", "result": 98.3, "unit": "%"},
      {"measurement": "residual activity", "setting": "CDC42BPB (human)", "result": 101, "unit": "%"},
      {"measurement": "residual activity", "setting": "CHEK2 (human)", "result": 101, "unit": "%"},
      {"measurement": "residual activity", "setting": "CSNK2A1 (human)", "result": 102, "unit": "%"},
      {"measurement": "residual activity", "setting": "DDR2 (human)", "result": 97.9, "unit": "%"},
      {"measurement": "residual activity", "setting": "EPHA1 (human)", "result": 103, "unit": "%"},
      {"measurement": "residual activity", "setting": "GRK5 (human)", "result": 105, "unit": "%"},
      {"measurement": "residual activity", "setting": "HIPK1 (human)", "result": 106, "unit": "%"},
      {"measurement": "residual activity", "setting": "HIPK3 (human)", "result": 102, "unit": "%"},
      {"measurement": "residual activity", "setting": "JAK2 JH1 JH2 (human)", "result": 94.2, "unit": "%"},
      {"measurement": "residual activity", "setting": "JAK3 JH1 JH2 (human)", "result": 95.4, "unit": "%"},
      {"measurement": "residual activity", "setting": "MAP2K1 (human)", "result": 99, "unit": "%"},
      {"measurement": "residual activity", "setting": "MAP2K2 (human)", "result": 101, "unit": "%"},
      {"measurement": "residual activity", "setting": "MAP3K11 (human)", "result": 90, "unit": "%"},
      {"measurement": "residual activity", "setting": "MAP3K14 (human)", "result": 67.9, "unit": "%"},
      {"measurement": "residual activity", "setting": "MAPK10 (human)", "result": 88.7, "unit": "%"},
      {"measurement": "residual activity", "setting": "MAPK8 (human)", "result": 103, "unit": "%"},
      {"measurement": "residual activity", "setting": "MARK4 (human)", "result": 93.3, "unit": "%"},
      {"measurement": "residual activity", "setting": "MATK (human)", "result": 95.1, "unit": "%"},
      {"measurement": "residual activity", "setting": "MST1R (human)", "result": 103, "unit": "%"},
      {"measurement": "residual activity", "setting": "MYLK2 (human)", "result": 93.7, "unit": "%"},
      {"measurement": "residual activity", "setting": "NEK6 (human)", "result": 101, "unit": "%"},
      {"measurement": "residual activity", "setting": "NTRK1 (human)", "result": 92.3, "unit": "%"},
      {"measurement": "residual activity", "setting": "OXSR1 (human)", "result": 107, "unit": "%"},
      {"measurement": "residual activity", "setting": "PAK4 (human)", "result": 109, "unit": "%"},
      {"measurement": "residual activity", "setting": "PHKG1 (human)", "result": 100, "unit": "%"},
      {"measurement": "residual activity", "setting": "PRKCA (human)", "result": 123, "unit": "%"},
      {"measurement": "residual activity", "setting": "PRKCD (human)", "result": 96.8, "unit": "%"},
      {"measurement": "residual activity", "setting": "PRKCI (human)", "result": 95.4, "unit": "%"},
      {"measurement": "residual activity", "setting": "RPS6KA5 KD2 (human)", "result": 98.2, "unit": "%"},
      {"measurement": "residual activity", "setting": "SRC (human)", "result": 103, "unit": "%"},
      {"measurement": "residual activity", "setting": "SRPK2 (human)", "result": 95.8, "unit": "%"},
      {"measurement": "residual activity", "setting": "STK11 (human)", "result": 102, "unit": "%"},
      {"measurement": "residual activity", "setting": "STK39 (human)", "result": 86.5, "unit": "%"},
      {"measurement": "residual activity", "setting": "TEK (human)", "result": 96.3, "unit": "%"},
      {"measurement": "residual activity", "setting": "TSSK2 (human)", "result": 98.3, "unit": "%"},
      {"measurement": "residual activity", "setting": "TXK (human)", "result": 98.1, "unit": "%"},
      {"measurement": "residual activity", "setting": "VRK1 (human)", "result": 91.9, "unit": "%"},
      {"measurement": "residual activity", "setting": "ZAP70 (human)", "result": 102, "unit": "%"}
    ]}
  ]
}
